Only a part is listed here, and it is no random draw. The source made the active and inactive calls.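 Rule for the calls: active = activation above the mean of all tested compounds plus 3 SD (cut at about 9.5% in these data); inactive = the rest.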
Test: compounds raising TTR promoter-driven luciferase – cell-based, luminescence, SH-SY5Y, TTR promoter Gaussia luciferase, primary screen (AID 1117267);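 note: cells exposed to compounds for one day before reading; 0% = median of all test compound wells on the plate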
Settings: at 16.7 µM, stronger effect = higher value, 100% = recombinant luciferase protein wells
With CCC(=O)N(c1ccccc1)C1(COC)CCN(CCc2cccs2)CC1 the activation was inactive: 0.6%. In the case of CCC(=O)N(c1ccccc1)C1(COC)CCN(CCn2nnn(CC)c2=O)CC1, the activation is reported as inactive: 2.37%.
